Experimental data from US4672036A, “Pure cultures of Kibdelsporangium aridum Shearer gen. nov., sp. nov. ATCC 39323 and mutants thereof” (SmithKline Beckman Corporation, priority 1985, dated 1987).

Test system: Swine in vitro model
Assay: swine in vitro model (growth promotant activity)

Molecule | GLU (glucose) [% Control] | VFA (total of volatile fatty acids) (1.67 ppm) [% Control] | VFA (total of volatile fatty acids) (16.67 ppm) [% Control]
CCCCCCCCCC(=O)N[C@H]1[C@H](Oc2c3cc4cc2Oc2c(Cl)cc(cc2Cl)[C@@H](O)[C@@H]2NC(=O)[C@H](NC(=O)[C@@H]4NC(=O)[C@H]4NC(=O)[C@H](NC(=O)[C@H](NC)c5ccc(O)c(c5)Oc5cc(O)c(Cl)c4c5)[C@H](O)c4ccc(c(Cl)c4)O3)c3ccc(O)c(c3)-c3c(O[C@H]4O[C@H](CO)[C@@H](O)[C@H](O)[C@@H]4O)cc(O)cc3[C@@H](C(=O)O)NC2=O)O[C@H](C(=O)O)[C@@H](O)[C@@H]1O [AAD 216A] | 97 |  | 
Virginiamycin |  | 248 | 130
